# Test results from patent US11623951B2, “Antibodies to R-spondin 3” (National Health Research Institutes, priority 2017, dated 2023).
# Target: T1, RSPO3 (Homo sapiens, UniProt Q9BXY4)
# T1 sequence (Q9BXY4 22-272): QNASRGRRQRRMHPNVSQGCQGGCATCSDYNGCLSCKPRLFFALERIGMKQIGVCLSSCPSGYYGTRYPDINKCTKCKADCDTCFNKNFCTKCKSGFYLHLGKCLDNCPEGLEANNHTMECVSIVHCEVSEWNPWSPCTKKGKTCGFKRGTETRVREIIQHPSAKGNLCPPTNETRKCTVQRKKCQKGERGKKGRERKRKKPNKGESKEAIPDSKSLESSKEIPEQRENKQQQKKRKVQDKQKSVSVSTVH
# Experiment: Octet (ForteBio) kinetic binding to biotinylated RSPO3
# Conditions: 30° C.
# Procedure: The streptavidin-coated sensors were coated with 10 μg/ml of biotinylated RSPO3 as described in the handbook of ForteBio. Antibody concentrations were in the range of 0.75 and 93.8 nM. Quantitative kinetic binding analysis was performed with pH-adjusted PBS with 0.5% BSA. All steps were run at 30° C. with a continuous shaking speed at 1000 rpm.
# To assess the RSPO3-binding affinities of the antibodies, kinetics assays were performed by the Octetsystems. The purified monoclonal antibodies (mAbs) from batch-A clones (A1, A4, A6, A9), along with the reference Ab-131R002, were examined for binding with RSPO-3.
substance,measurement,value
Erbitux: antibody listed in Table 3 beside the anti-RSPO3 antibodies in the Octet RSPO3 binding test [reference compound],Kd,976 µM
same,RMax,9.7173
same,kdis,0.0249 s⁻¹
same,kon,25.5 M⁻¹ s⁻¹
